The text below walks through data of patent US20260274832A1, “COMPOUNDS AND THEIR USE IN TREATING CANCER” (ASTRAZENECA AB, priority 2023, published 2026).

Chains of the proteins cited; added tags and fusions are not shown.
UniProt P10275, whole entry L702H/T878A: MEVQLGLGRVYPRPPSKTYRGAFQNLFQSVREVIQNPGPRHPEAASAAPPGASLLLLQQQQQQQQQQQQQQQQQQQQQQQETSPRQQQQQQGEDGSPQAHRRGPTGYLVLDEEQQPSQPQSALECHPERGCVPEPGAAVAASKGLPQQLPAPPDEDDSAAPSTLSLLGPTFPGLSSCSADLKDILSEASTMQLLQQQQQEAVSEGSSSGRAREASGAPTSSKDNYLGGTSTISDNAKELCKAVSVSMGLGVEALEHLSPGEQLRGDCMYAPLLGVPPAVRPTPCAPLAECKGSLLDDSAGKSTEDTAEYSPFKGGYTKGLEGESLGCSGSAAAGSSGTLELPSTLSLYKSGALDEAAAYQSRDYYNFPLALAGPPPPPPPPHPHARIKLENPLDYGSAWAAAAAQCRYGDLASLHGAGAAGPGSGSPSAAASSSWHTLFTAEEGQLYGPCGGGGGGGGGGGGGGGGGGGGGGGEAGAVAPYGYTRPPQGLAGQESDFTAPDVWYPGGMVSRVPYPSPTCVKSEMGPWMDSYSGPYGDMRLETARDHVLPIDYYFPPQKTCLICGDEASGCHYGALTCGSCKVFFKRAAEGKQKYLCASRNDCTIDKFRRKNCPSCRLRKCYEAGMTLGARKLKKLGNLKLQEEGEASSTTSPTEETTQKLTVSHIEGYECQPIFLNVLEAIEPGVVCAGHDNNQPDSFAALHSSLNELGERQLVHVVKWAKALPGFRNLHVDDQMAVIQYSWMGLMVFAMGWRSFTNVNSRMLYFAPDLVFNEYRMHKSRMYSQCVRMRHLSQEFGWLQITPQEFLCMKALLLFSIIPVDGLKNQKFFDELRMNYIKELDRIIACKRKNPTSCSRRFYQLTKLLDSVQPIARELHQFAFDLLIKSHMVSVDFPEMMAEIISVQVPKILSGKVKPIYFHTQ
UniProt P10275, whole entry T878A: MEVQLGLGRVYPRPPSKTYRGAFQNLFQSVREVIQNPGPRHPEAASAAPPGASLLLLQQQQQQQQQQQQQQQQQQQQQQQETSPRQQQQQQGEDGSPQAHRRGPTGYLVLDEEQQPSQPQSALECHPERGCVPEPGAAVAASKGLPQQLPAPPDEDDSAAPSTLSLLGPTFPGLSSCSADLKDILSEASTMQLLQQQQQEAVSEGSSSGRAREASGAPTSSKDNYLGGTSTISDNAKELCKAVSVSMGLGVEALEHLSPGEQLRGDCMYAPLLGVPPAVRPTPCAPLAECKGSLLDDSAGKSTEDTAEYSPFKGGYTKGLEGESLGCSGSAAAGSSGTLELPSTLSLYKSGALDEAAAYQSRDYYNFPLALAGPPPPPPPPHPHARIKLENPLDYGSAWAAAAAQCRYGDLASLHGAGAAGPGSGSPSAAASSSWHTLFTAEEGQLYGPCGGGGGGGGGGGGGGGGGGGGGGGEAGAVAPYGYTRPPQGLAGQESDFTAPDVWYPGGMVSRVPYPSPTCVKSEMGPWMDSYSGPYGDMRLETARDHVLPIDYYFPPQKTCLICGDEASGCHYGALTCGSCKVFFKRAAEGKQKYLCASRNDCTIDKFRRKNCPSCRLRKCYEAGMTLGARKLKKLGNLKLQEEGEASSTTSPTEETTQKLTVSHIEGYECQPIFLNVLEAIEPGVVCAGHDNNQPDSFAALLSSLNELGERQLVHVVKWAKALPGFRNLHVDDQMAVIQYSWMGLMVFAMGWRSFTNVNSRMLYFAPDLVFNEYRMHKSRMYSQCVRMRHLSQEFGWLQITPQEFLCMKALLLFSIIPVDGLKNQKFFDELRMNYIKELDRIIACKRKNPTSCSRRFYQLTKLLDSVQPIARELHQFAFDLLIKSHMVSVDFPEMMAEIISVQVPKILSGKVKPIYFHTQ
UniProt Q96SW2, whole entry partner: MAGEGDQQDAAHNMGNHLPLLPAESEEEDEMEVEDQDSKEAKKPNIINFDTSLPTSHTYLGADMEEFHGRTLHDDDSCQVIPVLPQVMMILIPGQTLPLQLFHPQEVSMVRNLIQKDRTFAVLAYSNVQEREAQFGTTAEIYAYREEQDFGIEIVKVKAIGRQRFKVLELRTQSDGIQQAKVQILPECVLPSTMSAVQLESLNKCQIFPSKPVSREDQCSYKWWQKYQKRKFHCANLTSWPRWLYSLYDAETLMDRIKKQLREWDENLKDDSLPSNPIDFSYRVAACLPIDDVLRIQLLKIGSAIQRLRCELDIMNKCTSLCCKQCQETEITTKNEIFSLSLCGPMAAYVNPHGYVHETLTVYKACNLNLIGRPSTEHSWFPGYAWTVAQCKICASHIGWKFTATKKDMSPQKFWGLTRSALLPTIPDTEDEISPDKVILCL

In assay [1] the target is AR (AR-full length) in LNCaP cells (Homo sapiens, UniProt P10275, T878A). Briefly: LNCaP Androgen Receptor Imaging Assay (immunofluorescence of endogenous nuclear AR). Particulars: read-out: LNCaP AR Degradation DC50, 24 h incubation, concentration giving 50% of maximum degradation of AR per curve fit, single experiment or average of two or more. The procedure: This cell-based imaging assay uses immuno-fluorescence to measure endogenous nuclear AR staining in the prostate cancer cell line LNCaP (expressing AR-full length). The purpose of the assay is to identify compounds that regulate AR protein level according to the protocol laid out in the steps below.
All work was performed in a sterile tissue culture hood up to the point of cell fixation. LNCaP cells were cultured at 6-8×10^6 per T175 flask and split every 3-4 days. Medium: RPMI (R7638, VWR Sigma) containing 10% FCS and 1% glutamine. Cells were plated in black wall transparent bottom plates at a density of 12,000 cells (Cedex™ Cell counter, Beckmann & Coulter), 40 μL per well, using a Multidrop (ThermoFisher). […]
(§1) The cells were incubated with a Mouse monoclonal Anti-AR antibody AR441 (DAKO M3562) (1:1000), diluted in modified blocking buffer (PBS+1% BSA+0.1% TritonX); 15 μL/well for 2 h at RT. […] Plates could be stored after staining for three days at 4° C. before read if required.
(§2) Plates are read using a Cellomics Cellinsight to measure the Androgen Receptor level in each well. […] Down-regulation of AR is expressed as a DC50 value and determined by calculation of the concentration of compound that is required to give 50% of maximum degradation of AR as per the curve fit for that compound. The maximum degradation observed for each compound is expressed as Dmax. […]

Assay [2] deals with AR (L702H) in LNCaP cells (Homo sapiens, UniProt P10275, L702H/T878A). As to the kind of experiment: LNCaP Androgen Receptor L702H Imaging Assay (LNCaP cells engineered by CRISPR/Cas9). To be noted: LNCaP cells with AR L702H mutation, 24 h incubation. The procedure:
All work was performed in a sterile tissue culture hood up to the point of cell fixation. LNCaP cells were cultured at 6-8×10^6 per T175 flask and split every 3-4 days. Medium: RPMI (R7638, VWR Sigma) containing 10% FCS and 1% glutamine. Cells were plated in black wall transparent bottom plates at a density of 12,000 cells (Cedex™ Cell counter, Beckmann & Coulter), 40 μL per well, using a Multidrop (ThermoFisher).
Cells were dosed with test compound diluted in DMSO using an Echo 555/655™ (Labcyte) and the final concentration of DMSO in the well was 0.3%. A neutral control (DMSO) and a positive AR degrader control at 3 μM (a prior art AR PROTAC) were included. […]
as §1, §2

Take `COc1nc(N2CCC(CN3CCC(c4ccc(N5CCCC(c6ccc(Cl)c7c(C#N)c[nH]c67)C5)cc4)CC3)CC2)cc2c1C(=O)N(C1CCC(=O)NC1=O)C2` (single isomer, unassigned) [Example 98, 4-Chloro-7-[(3R*)-1-{4-[1-({1-[2-(2,6-dioxopiperidin-3-yl)-4-methoxy-3-oxo-2,3-dihydro-1H-pyrrolo[3,4-c]pyridin-6-yl]piperidin-4-yl}methyl)piperidin-4-yl]phenyl}piperidin-3-yl]-1H-indole-3-carbonitrile]: the DC50 in assay [1] is greater than 3 µM; in assay [2] (read-out: LNCaP AR (L702H) Degradation DC50, concentration giving 50% of maximum degradation of AR (L702H) per curve fit), 3.1 µM. The “LNCaP AR (L702H) Degradation Dmax” value in assay [2] (maximum degradation observed, normalized as % of positive control) is recorded as 100%.
